# What was measured:
# Sequences of proteins named here, by UniProt entry; tags and fusion partners are left off. A change or cut given only in a name is not applied to a line headed by its entry. Residues count along the entry.
# UniProt P41144: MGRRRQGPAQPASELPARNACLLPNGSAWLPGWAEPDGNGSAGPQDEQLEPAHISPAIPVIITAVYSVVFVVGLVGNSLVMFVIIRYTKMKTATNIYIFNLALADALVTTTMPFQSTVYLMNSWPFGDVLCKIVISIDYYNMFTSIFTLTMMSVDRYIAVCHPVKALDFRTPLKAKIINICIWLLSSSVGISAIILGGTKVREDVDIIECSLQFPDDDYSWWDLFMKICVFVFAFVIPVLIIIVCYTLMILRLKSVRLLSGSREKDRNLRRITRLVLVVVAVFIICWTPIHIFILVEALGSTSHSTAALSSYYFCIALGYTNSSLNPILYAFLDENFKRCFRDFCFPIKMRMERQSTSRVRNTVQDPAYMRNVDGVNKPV
# UniProt A0A286XTF2, 1-366: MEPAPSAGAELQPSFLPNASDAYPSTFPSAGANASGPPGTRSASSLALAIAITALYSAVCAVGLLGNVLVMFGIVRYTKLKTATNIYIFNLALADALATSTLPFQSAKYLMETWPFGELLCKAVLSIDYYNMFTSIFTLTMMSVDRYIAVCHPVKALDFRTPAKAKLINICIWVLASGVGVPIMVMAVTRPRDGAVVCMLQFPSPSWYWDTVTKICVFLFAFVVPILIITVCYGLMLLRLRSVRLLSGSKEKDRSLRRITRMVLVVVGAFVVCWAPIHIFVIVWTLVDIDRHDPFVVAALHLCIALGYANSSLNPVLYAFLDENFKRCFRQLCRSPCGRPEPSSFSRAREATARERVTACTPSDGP
# kappa receptor [1] = target: T1, kappa receptor (Cavia porcellus, UniProt P41144); conditions: cited from earlier work
# [2] = tested on: opiate receptors of the kappa type in the gastric mucous membrane; conditions: dog, M. Gue et al.; cited from earlier work
# [3] = tested on: abdominal cramps caused by acetic acid; assay: Analgesic activity in vivo, abdominal cramps caused by intraperitoneal acetic acid (derived from Koster); conditions: 50 mg/kg, orally, mice
# kappa receptor [4] = target: T1, kappa receptor
# delta receptor = delta receptor (Cavia porcellus, UniProt A0A286XTF2); conditions: read-out: CI50, inhibition of 50% of the binding of a specific radioactive ligand, delta receptor, racemates uncorrected
# mu receptor = assay: Binding affinity to opiate receptor mu (inhibition of binding of a specific radioactive ligand); conditions: read-out: CI50, inhibition of 50% of the binding of a specific radioactive ligand, mu receptor, racemates uncorrected
structure (smiles),measurement,setting,value
CN(C(=O)Cc1ccc(Cl)c(Cl)c1)[C@@H]1CCCC[C@H]1N1CCCC1 (relative stereo),"kappa receptor specificity (in words, as reported)",kappa receptor [1],binds specifically to the kappa receptors
same,gastric discharge after oral administration (in words),[2],modify the gastric discharge by their local action
same,% analgesia,[3],90.0%
same,kappa receptor affinity (in words),"kappa receptor [4]; compared with the (+) enantiomer, kappa receptor only",The same applies
same,IC50,"kappa receptor [4]; read-out: CI50, inhibition of 50% of the binding of a specific radioactive ligand, kappa receptor, racemates uncorrected",66 nM
same,IC50,delta receptor,14600 nM
same,IC50,mu receptor,1030 nM

# Reference: patent publication US5266599A, “Use of (+)-1-[(3,4,5-trimethoxy)-benzyloxymethyl]-1-phenyl-N,N-dimethyl-n-propy lamine to increase gastric discharge in a subject” (priority 1989, dated 1993)
